Where “and” joins values, the source holds several entries; their conditions need not be identical. Equal values may be shown once.
Test: Solubility experiments in sodium phosphate buffer pH 6.5, 37 °C (HPLC)
Conditions: highest dissolved concentration
Protocol: Solubility experiments were conducted in sodium phosphate buffer solutions at pH 6.5 and 37 °C to simulate intestinal physiological conditions. For each experiment, an excess crystalline solid was sieved through a 300 μm sieve and introduced into a flask with a screw top containing 100 mL of the medium. The solution was stirred at 200 rpm using a magnetic stir bar for 48 h to reach the equilibrium state. […] After each sampling, the volume of the liquid removed from the suspension was not compensated. The withdrawn suspension was filtered through 0.2 μm nylon filters and diluted prior to high-performance liquid chromatography (HPLC) analysis. The solubility experiment for each crystal form was repeated in triplicate. After the last sample collection, the remaining solid material in the suspension was filtered, dried, and characterized by IR and PXRD.
A C18 HPLC column (YMC-Pack ODS-A column, 4.6 mm × 250 mm, 5 μm) with a flow rate of 1 mL min^–1 was employed, and the column temperature was set at 25 °C. The binary mobile phase consisted of acetonitrile and sodium phosphate buffer (pH 6.5) in a volume ratio of 25:75. The samples were diluted appropriately with the mobile phase, and the absorbance was measured at 347 nm.

SMILES: Cc1cnc(NC(=O)C2=C(O)c3ccccc3S(=O)(=O)N2C)s1 [MEL, meloxicam]
- dissolved MEL: 0.08 mg mL^–1 and 0.08 ± 0.02 mg mL^–1
